Structures are written as SMILES.

Amino acid sequences for entries named in this document (tags omitted). A change or cut given only in a name is not applied to a line headed by its entry.
UniProt P04818: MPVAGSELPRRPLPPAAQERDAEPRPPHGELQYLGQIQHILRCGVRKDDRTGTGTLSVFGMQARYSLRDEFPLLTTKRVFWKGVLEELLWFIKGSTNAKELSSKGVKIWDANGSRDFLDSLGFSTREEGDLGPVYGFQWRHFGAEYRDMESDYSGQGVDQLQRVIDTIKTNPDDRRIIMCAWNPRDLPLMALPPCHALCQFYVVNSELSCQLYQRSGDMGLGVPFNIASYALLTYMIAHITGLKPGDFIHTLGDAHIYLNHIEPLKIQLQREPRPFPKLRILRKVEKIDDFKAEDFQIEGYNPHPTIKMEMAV

This assay concerns the target T1, human TS (hTS) (Homo sapiens, UniProt P04818).
T1 construct: purchased ProSpec-Tany
The assay is described as follows: Thymidylate synthase (TS) spectrophotometric assay. The format is biochemical.

Take `Nc1nc2[nH]cc(CCc3ccc(C(=O)N[C@@H](CCC(=O)O)C(=O)O)cc3)c2c(=O)[nH]1` [PTX, pemetrexed, reference compound]: the IC50 (usually the point on the concentration scale where inhibition reaches its midpoint) came out at 2710 nM.

Source of the values: article PMC6624297 (Cell Death & Disease, 2019).
